Values quoted from earlier work as cited in patent publication US10736889B2, “Method of treating dyskinesia” (Rutgers, The State University of New Jersey, priority 2011, dated 2020).

Chains of the proteins cited; added tags and fusions are not shown.
UniProt P35372, whole entry: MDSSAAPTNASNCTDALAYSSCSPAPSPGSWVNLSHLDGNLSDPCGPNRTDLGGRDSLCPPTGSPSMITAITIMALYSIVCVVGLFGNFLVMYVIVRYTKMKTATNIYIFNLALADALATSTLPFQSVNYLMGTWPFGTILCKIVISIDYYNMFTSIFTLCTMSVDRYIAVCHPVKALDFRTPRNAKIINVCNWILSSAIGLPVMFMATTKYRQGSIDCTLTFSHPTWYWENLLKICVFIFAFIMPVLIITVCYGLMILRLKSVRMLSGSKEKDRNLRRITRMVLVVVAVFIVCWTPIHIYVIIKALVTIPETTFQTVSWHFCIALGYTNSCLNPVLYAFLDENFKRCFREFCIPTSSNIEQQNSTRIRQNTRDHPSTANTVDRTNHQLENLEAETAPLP

Target: μ-opioid receptors (Homo sapiens, UniProt P35372)
Settings: read-out: Ki for μ-opioid receptors

CCC12CCN(CC3(O)CC3)C(Cc3ccc(O)cc31)C2(C)C (stereo not shown) [Bremazocine]
Ki: ~1.6 nM
